Among the data in ChEMBL document CHEMBL3272301, “Improved delivery through biological membranes. 2. Distribution, excretion, and metabolism of N-methyl-1,6-dihydropyridine-2-carbaldoxime hydrochloride, a pro-drug of N-methylpyridinium-2-carbaldoxime chloride” (1976) are Cp and Drug excretion values, retold here.

For data set [1], the system named is Plasma. Nature of the data set: Plasma concentration in beagle dog at 5 mg/kg, iv measured after 5 mins. Particulars: in vivo, strain beagle.
The subject of data set [2] is Plasma. Briefly: Plasma concentration in beagle dog at 5 mg/kg, iv measured after 45 mins. The note with it: in vivo, 0.75 h, strain beagle.
For data set [3], the system named is Plasma. Briefly: Plasma concentration in beagle dog at 5 mg/kg, iv measured after 15 mins. Particulars: in vivo, 0.25 h, strain beagle.
For data set [4], the system named is Plasma. Briefly: Plasma concentration in beagle dog at 5 mg/kg, iv measured after 30 mins. The note with it: in vivo, 0.5 h, strain beagle.
The subject of data set [5] is Plasma. Briefly: Plasma concentration in beagle dog at 5 mg/kg, iv measured after 60 mins. The note with it: in vivo, 1 h, strain beagle.
A short description of data set [6]: Drug excretion in beagle dog urine assessed as radioactivity treated with [14C]-labelled N-Methyl-1,6-dihydropyridine-2-carbaldoxime hydrochloride at 44.6 mg/kg, po by liquid scintillation counting. Particulars: in vivo, strain beagle.
Data set [7] is described as follows: Drug excretion in beagle dog feces treated with [14C]-labelled N-Methyl-1,6-dihydropyridine-2-carbaldoxime hydrochloride at 44.6 mg/kg, po by liquid scintillation counting. Particulars: in vivo, strain beagle.
The nature of data set [8]: Drug excretion in beagle dog feces assessed as radioactivity treated with [14C]-labelled N-Methyl-1,6-dihydropyridine-2-carbaldoxime hydrochloride at 44.6 mg/kg, po by liquid scintillation counting. Particulars: in vivo, strain beagle.
Data set [9] in a line: Drug excretion in beagle dog urine treated with [14C]-labelled N-Methyl-1,6-dihydropyridine-2-carbaldoxime hydrochloride at 44.6 mg/kg, po by liquid scintillation counting. Particulars: in vivo, strain beagle.

Consider `C[n+]1ccccc1/C=N/O.[Cl-]`, for which the Cp in the data set on Plasma [1] was determined as 11400 ng/mL; in the data set with Plasma [2], 2450 ng/mL; with Plasma [3], 5680 ng/mL; in the data set with Plasma [4], 5550 ng/mL; in the data set with Plasma [5], 1250 ng/mL.

In the case of `CN1CC=CC=C1/C=N/O.Cl`, the Drug excretion turned out to be 43.7 %ID in data set [6], 19.2 %ID in data set [7], 50.9 %ID in data set [8] and 67.6 %ID in data set [9].
